# scFv variants of Ab-14 (light chain) against a SARS-CoV-2 spike peptide

Values reported by Li et al. 2023, doi:10.1038/s41467-023-39022-2 (FLAb copy).

All variants were tested on one target, the spike HR2 peptide PDVDLGDISGINAS (SARS-CoV-2).

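Phage display of a naive human antibody library on the peptide gave the parent. These sequences belong to a second round, designed from the earlier measurements on random variants of the parent. Several design methods are mixed in this list. The scFvs were displayed on barcoded MATa yeast, the peptide on MATalpha yeast. Mating (16 h, 30 °C) was followed by selection of diploids and sequencing of their barcodes. Each replicate has its own calibration line, from reference interactions of the BCL2 family. There are six technical replicates.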

Parent: Ab-14, a human scFv built as VH, the linker GGGGSGGGGSGGGGS, VL. Only the CDRs of the light chain vary.
VH: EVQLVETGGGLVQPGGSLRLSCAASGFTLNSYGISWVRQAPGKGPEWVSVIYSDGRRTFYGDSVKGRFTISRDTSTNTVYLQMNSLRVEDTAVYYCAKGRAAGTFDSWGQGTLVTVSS
VL: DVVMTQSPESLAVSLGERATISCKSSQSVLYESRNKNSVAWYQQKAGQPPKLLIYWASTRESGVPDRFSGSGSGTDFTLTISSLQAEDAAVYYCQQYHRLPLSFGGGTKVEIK

Variants are written as CDR1, CDR2 and CDR3 of the light chain (limits as in the source). Parent: KSSQSVLYESRNKNSVA, WASTRES, QQYHRLPLS.
Variants here have more than six changes.
Affinities are written as log10 Kd with Kd in nM; a lower number is a better binder.
A mean of the replicates is given; it leaves out those without a signal.
An entry "no signal" has no value in the source: the pair was not observed among the diploids in any replicate. This suggests poor binding but is not conclusive.
As a blank, each scFv also met three strains without target: over all light chain designs, 4% of these pairings were detected, typically at 2.64 and seldom below 1.59.
The range of this assay differs from that of the first round, and the authors advise against merging the two.
The authors averaged sequences with at least three values out of six and counted those with two or fewer as poor binders.
The parent sequence was in this pool as ten entries: three were never detected, three once, and four in most replicates, with averages from 0.34 to 2.37.

For MISDLTMYGSRNKNSIA | DLSTRGS | QQYHRLPLS, the assay gave -0.17 (6 of 6 replicates).
For KVQQSGCMLSRNKNSVA | HASTRES | QQYHRLPLS, the assay gave 0.61 (6 of 6 replicates).
For KISWNALIESKNLNSVA | EMTTREY | QDYDRLPLS, the assay gave no signal (0 of 6 replicates).
For NFSEQQKTDREQQYSIA | GTDIREK | QQYGRLPLT, the assay gave 0.79 (6 of 6 replicates).
For KIGQTVTYESTNKNAIA | QMTTREE | QQYHRLPLS, the assay gave 1.17 (6 of 6 replicates).
For KLQQQEQYESRNWNSVA | NASDRQS | QQYHRLPLS, the assay gave 0.68 (6 of 6 replicates).
For MISQLMNMGQFAINSVA | QATIRNS | QQYDRLPLV, the assay gave 0.98 (6 of 6 replicates).
For TLTQVQGMETHNKNSVA | DLSTRGS | QQYHRLPLS, the assay gave 0.14 (6 of 6 replicates).
For KISASVNYEMVIGQSVA | QMSTREE | QQYDRLPLS, the assay gave 1.23 (3 of 6 replicates).
For KVSEFMKGLMMRTDSIA | DNVTRSN | QQYDRLPLS, the assay gave 1.57 (6 of 6 replicates).
For MLSQMWAIGQKVSNSVA | QASMRFN | QQYDRLPLI, the assay gave 1.49 (6 of 6 replicates).
For KLSQSDLYEDRNANNVA | NASQRES | QVYHRLPLS, the assay gave 0.46 (6 of 6 replicates).
For KVSEFMRGLMMRKDSIA | DNVTRNS | QQYDRLPLS, the assay gave 2.03 (6 of 6 replicates).
For MLSDLVKMGSRNTNSVA | DNSTRGS | QQYDRLPLM, the assay gave 1.89 (6 of 6 replicates).
For KYEQQELTEQRNKNSVA | NASTRES | QQYHQLPLS, the assay gave 0.38 (6 of 6 replicates).
For KYSQSHGGESRNKNSVA | HASLREV | QQYHRLPLS, the assay gave 0.96 (6 of 6 replicates).
For KAQQSNLYEDRNQNSVA | NASQRLS | QQYHRLPLS, the assay gave -0.08 (6 of 6 replicates).
For KLSMVTGHLSMAKNNVA | EMVTREK | QQYNRLPLA, the assay gave -0.25 (6 of 6 replicates).
For KVKAMLNMWARDIHNVA | HADERAV | QQYSRLPLG, the assay gave 0.30 (6 of 6 replicates).
For HIDWLNRGETLKKDDIA | NADHREQ | QQYFHLPLS, the assay gave 0.58 (6 of 6 replicates).
For TLMQVGGYETNAHNSIA | DLRTREN | QQYHRLPLS, the assay gave 0.75 (6 of 6 replicates).
For HINEVDHGVENKYNNIA | DISELAI | QQYFQLPIS, the assay gave 1.67 (6 of 6 replicates).
For KMSVHLYDAKNRDMSIA | DEELHTV | QQYNRLPFS, the assay gave 2.14 (5 of 6 replicates).
For MISGVLHMLGAKKNSIA | DLVLRAN | QQYHRLPLM, the assay gave 2.13 (4 of 6 replicates).
For TLYGLSNSMSKNKNSVA | EMTTRED | QQYDRLPLV, the assay gave 1.85 (6 of 6 replicates).
For KLSMTHLMESVNRNSVA | ELVTRMR | QQYNRLPLS, the assay gave 0.33 (6 of 6 replicates).
For MVTQMAMTGMMSKRSVA | NAETRED | QQYHRLPLI, the assay gave 0.63 (6 of 6 replicates).
For KVSSFMRGLMMRTDSIA | DNETRSN | QQYDRLPLS, the assay gave 1.32 (5 of 6 replicates).
For RLHAYTQGFWRAMQNIA | DISYRVT | QQYGRLPLS, the assay gave 1.98 (5 of 6 replicates).
For KLSQVTHSESRNKNSIA | EMVTREV | QQYDRLPLE, the assay gave 0.93 (6 of 6 replicates).
For KLSQGWLYESRNCNQVA | NASQREE | QQYHRLPLS, the assay gave 0.32 (6 of 6 replicates).
For KFAYGLDYNNAHKSAVA | HADIRVI | QQYFRLPLD, the assay gave no signal (0 of 6 replicates).
For IVSQLMLWGLHAKNSIA | EAVTRLN | QQYDRLPLF, the assay gave 2.39 (1 of 6 replicates).
For KLRQVTGYEMYNKNSVA | QTSTRAS | QDYHRLPLS, the assay gave 0.50 (5 of 6 replicates).
For KLSMITGHMSMAKNNVA | EMVTREN | QQYNRLPLS, the assay gave -0.66 (5 of 6 replicates).

Picked from the list: the 3 lowest averages where every replicate gave a value.

KLSMVTGHLSMAKNNVA | EMVTREK | QQYNRLPLA: -0.25 (6 of 6 replicates).
MISDLTMYGSRNKNSIA | DLSTRGS | QQYHRLPLS: -0.17 (6 of 6 replicates).
KAQQSNLYEDRNQNSVA | NASQRLS | QQYHRLPLS: -0.08 (6 of 6 replicates).